These results got no clear call from the source, so the numbers are uncertain. Unless noted, calls follow the shape of the dose curve; as a rule, active = well fitted curve in the direction sought with a large enough effect; inconclusive = small, poorly fitted or top-dose-only effect, or another doubt; inactive = no such curve, though single readings can be large; an effect the other way counts as inactive or inconclusive.
How the values were obtained:
[1] = qHTS Screen of the MIPE 4.0 Collection Against Ewings Sarcoma (TC71) (AID 1259253); conditions: TC71 Ewing sarcoma viability, CellTiter-Glo, 48 h; also: nearly all actives have a fitted effect of over 40% in size
[2] = qHTS Screen of the MIPE 4.0 Collection Against Ewings Sarcoma (EW8) (AID 1259255); conditions: EW8 Ewing sarcoma viability, CellTiter-Glo, 48 h; also: nearly all actives have a fitted effect of over 35% in size
[3] = qHTS Screen of the MIPE 4.0 Collection Against Ewings Sarcoma (TC32) (AID 1259256); conditions: TC32 Ewing sarcoma viability, CellTiter-Glo, 48 h; also: nearly all actives have a fitted effect of over 45% in size
[4] = qHTS of pediatric cancer cell lines to identify multiple opportunities for drug repurposing: Primary screen for LAN-5 cells (AID 1347100); conditions: LAN-5 neuroblastoma viability, CellTiter-Glo luminescence, 48 h
[5] = qHTS of pediatric cancer cell lines to identify multiple opportunities for drug repurposing: Primary screen for BT-12 cells (AID 1347101); conditions: BT-12 viability, CellTiter-Glo luminescence, 48 h; also: nearly all actives have a fitted effect of over 25% in size
[6] = system: Zika virus NS2B-NS3 protease; assay: Primary screen GU AMC qHTS for Zika virus inhibitors (AID 1347154); conditions: Zika NS2B-NS3 unlinked protease, AMC fluorogenic substrate; also: nearly all actives have a fitted effect of over 70% in size
[7] = Quantitative High-Throughput drug screen in 47 multiple myeloma cell lines against the NCATS MIPE library collection: Delta47_JCRB cell viability assay (AID 1918925; also: nearly all actives have a fitted effect of over 45% in size); conditions: Delta47 myeloma viability, CellTiter-Glo ATP, 48 h
[8] = Quantitative High-Throughput drug screen in 47 multiple myeloma cell lines against the NCATS MIPE library collection: AMO1_DSMZ cell viability assay (AID 1918927; also: nearly all actives have a fitted effect of over 30% in size); conditions: AMO1 myeloma cells viability, CellTiter-Glo ATP luminescence, 48 h
[9] = Quantitative High-Throughput drug screen in 47 multiple myeloma cell lines against the NCATS MIPE library collection: ARD_JJKsccE7 cell viability assay (AID 1918929); conditions: ARD myeloma cell line viability, CellTiter-Glo, 48 h
[10] = Quantitative High-Throughput drug screen in 47 multiple myeloma cell lines against the NCATS MIPE library collection: KMM1_JCRB cell viability assay (AID 1918960); conditions: KMM1 myeloma viability, CellTiter-Glo ATP luminescence, 48 h; also: nearly all actives have a fitted effect of over 30% in size
[11] = Quantitative High-Throughput drug screen in 47 multiple myeloma cell lines against the NCATS MIPE library collection: Karpas417_ECACC cell viability assay (AID 1918961); conditions: Karpas417 myeloma viability, CellTiter-Glo ATP luminescence, 48 h
Summary of the method: (§1)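 We plated 500 myeloma cells per well, pinned in MIPE 4.0 compounds, and incubated for 48 hours at 37C. ATP was then quantified with CellTiter-Glo, with DMSO and media-only wells defining 100% and 0%.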

[12] = Quantitative High-Throughput drug screen in 47 multiple myeloma cell lines against the NCATS MIPE library collection: KHM11_PLB cell viability assay (AID 1918962); conditions: KHM11 myeloma cell viability, CellTiter-Glo ATP luminescence, 48 h; also: nearly all actives have a fitted effect of over 35% in size
[13] = Quantitative High-Throughput drug screen in 47 multiple myeloma cell lines against the NCATS MIPE library collection: JIM3_ECACC cell viability assay (AID 1918963; also: nearly all actives have a fitted effect of over 35% in size); conditions: JIM3 myeloma viability, CellTiter-Glo ATP, 48 h
[14] = Quantitative High-Throughput drug screen in 47 multiple myeloma cell lines against the NCATS MIPE library collection: JIM1_ECACC cell viability assay (AID 1918964); conditions: JIM1 myeloma viability, CellTiter-Glo ATP luminescence, 48 h
Summary of the method: (§2)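 Steps: seed 500 cells per well; pin-transfer MIPE 4.0 library; incubate 48 h at 37C, 5% CO2, humidified; add CellTiter-Glo, 5 min room temperature; read luminescence.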

[15] = Quantitative High-Throughput drug screen in 47 multiple myeloma cell lines against the NCATS MIPE library collection: INA6_PLB cell viability assay (AID 1918965; also: nearly all actives have a fitted effect of over 55% in size); conditions: INA6 myeloma viability, CellTiter-Glo ATP luminescence, 48 h
Summary of the method: as §1

[16] = Quantitative High-Throughput drug screen in 47 multiple myeloma cell lines against the NCATS MIPE library collection: JJN3_DSMZ cell viability assay (AID 1918966; also: nearly all actives have a fitted effect of over 50% in size); conditions: JJN3 myeloma cells viability, CellTiter-Glo ATP, 48 h
[17] = Quantitative High-Throughput drug screen in 47 multiple myeloma cell lines against the NCATS MIPE library collection: H1112_PLB cell viability assay (AID 1918967; also: nearly all actives have a fitted effect of over 30% in size); conditions: H1112 myeloma cells viability, ATP luminescence, 48 h
[18] = Quantitative High-Throughput drug screen in 47 multiple myeloma cell lines against the NCATS MIPE library collection: Karpas25_ECACC cell viability assay (AID 1918968; also: nearly all actives have a fitted effect of over 35% in size); conditions: Karpas25 myeloma viability, CellTiter-Glo ATP, 48 h
[19] = Quantitative High-Throughput drug screen in 47 multiple myeloma cell lines against the NCATS MIPE library collection: KMS27_JCRB cell viability assay (AID 1918970); conditions: KMS27 myeloma cells, CellTiter-Glo ATP viability, 48 h; also: nearly all actives have a fitted effect of over 30% in size
[20] = Quantitative High-Throughput drug screen in 47 multiple myeloma cell lines against the NCATS MIPE library collection: KMS12BM_JCRB cell viability assay (AID 1918971); conditions: KMS12BM myeloma viability, CellTiter-Glo ATP, 48 h; also: nearly all actives have a fitted effect of over 35% in size
Summary of the method: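 qHTS of the MIPE 4.0 collection: 500 myeloma cells/well, 48 h drug exposure at 37C in 5% CO2, then CellTiter-Glo for 5 min at room temperature before luminescence reading.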

[21] = Quantitative High-Throughput drug screen in 47 multiple myeloma cell lines against the NCATS MIPE library collection: KMS20_JCRB cell viability assay (AID 1918973); conditions: CellTiter-Glo ATP, 48 h; also: nearly all actives have a fitted effect of over 45% in size
[22] = Quantitative High-Throughput drug screen in 47 multiple myeloma cell lines against the NCATS MIPE library collection: KMS21BM_JCRB cell viability assay (AID 1918974); conditions: ATP luminescence, 48 h
Summary of the method: as §2

[23] = Quantitative High-Throughput drug screen in 47 multiple myeloma cell lines against the NCATS MIPE library collection: KMS26_JCRB cell viability assay (AID 1918975); conditions: KMS26 myeloma cells viability, CellTiter-Glo ATP, 48 h; also: nearly all actives have a fitted effect of over 45% in size
[24] = Quantitative High-Throughput drug screen in 47 multiple myeloma cell lines against the NCATS MIPE library collection: MMM1_PLB cell viability assay (AID 1918976); conditions: MM.1S-type MMM1 myeloma cells viability, CellTiter-Glo, 48 h; also: nearly all actives have a fitted effect of over 35% in size
Summary of the method: (§3)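 Plated at 500 cells per well, myeloma lines received MIPE 4.0 compounds by pin tool. Following 48 h culture at 37 °C, CellTiter-Glo luminescence gave viability relative to DMSO and media-only controls.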

[25] = Quantitative High-Throughput drug screen in 47 multiple myeloma cell lines against the NCATS MIPE library collection: OCIMY1_PLB cell viability assay (AID 1918979); conditions: OCI-MY1 myeloma viability, CellTiter-Glo ATP, 48 h; also: nearly all actives have a fitted effect of over 35% in size
[26] = Quantitative High-Throughput drug screen in 47 multiple myeloma cell lines against the NCATS MIPE library collection: MM1S_ATCC cell viability assay (AID 1918980); conditions: MM1S myeloma viability, CellTiter-Glo ATP luminescence, 48 h; also: nearly all actives have a fitted effect of over 45% in size
Summary of the method: as §3

[27] = Quantitative High-Throughput drug screen in 47 multiple myeloma cell lines against the NCATS MIPE library collection: LP1_DSMZ cell viability assay (AID 1918982); conditions: LP1 myeloma viability, CellTiter-Glo ATP luminescence, 48 h; also: nearly all actives have a fitted effect of over 35% in size
[28] = Quantitative High-Throughput drug screen in 47 multiple myeloma cell lines against the NCATS MIPE library collection: L363_DSMZ cell viability assay (AID 1918984); conditions: L363 myeloma viability, CellTiter-Glo ATP luminescence, 48 h; also: nearly all actives have a fitted effect of over 40% in size
[29] = Quantitative High-Throughput drug screen in 47 multiple myeloma cell lines against the NCATS MIPE library collection: OCIMY5_PLB cell viability assay (AID 1918988); conditions: OCI-MY5 myeloma viability, ATP luminescence, 48 h; also: nearly all actives have a fitted effect of over 65% in size
Summary of the method: as §3

[30] = Quantitative High-Throughput drug screen in 47 multiple myeloma cell lines against the NCATS MIPE library collection: OPM1_PLB cell viability assay (AID 1918989); conditions: CellTiter-Glo, 48 h; also: nearly all actives have a fitted effect of over 40% in size
[31] = Quantitative High-Throughput drug screen in 47 multiple myeloma cell lines against the NCATS MIPE library collection: XG6_PLB cell viability assay (AID 1919865); conditions: XG6 myeloma viability, CellTiter-Glo ATP luminescence, 48 h; also: nearly all actives have a fitted effect of over 40% in size
[32] = Quantitative High-Throughput drug screen in 47 multiple myeloma cell lines against the NCATS MIPE library collection: XG1_PLB cell viability assay (AID 1919866); conditions: CellTiter-Glo ATP, 48 h; also: nearly all actives have a fitted effect of over 35% in size
[33] = Quantitative High-Throughput drug screen in 47 multiple myeloma cell lines against the NCATS MIPE library collection: KMS28BM_JCRB cell viability assay (AID 1919874); conditions: CellTiter-Glo ATP, 48 h; also: nearly all actives have a fitted effect of over 35% in size
[34] = qHTS for identification of novel therapeutic agents for treatment of microphthalmiaassociated transcription factor (MiT) renal cell carcinoma (RCC) (AID 1963991; calls by dose curve); conditions: TFE3-RCC UOK109 viability, CellTiter-Glo, 48 h; active = Z-AUC below -0.8 in all three lines
[35] = system: HEK293; assay: Cytotoxic Profiling of Annotated Libraries Using Quantitative High-Throughput Screening (AID 1296008); conditions: Five cell lines viability, CellTiter-Glo ATP luminescence, 48-72 h; also: nearly all actives have a fitted effect of over 60% in size

Measured: Potency
Potency is read from the fitted curve at half-maximal effect.

CCn1c(=O)n([C@@H]2CCN(CC3CCCCCCC3)C[C@@H]2CO)c2ccccc21
inconclusive: [1] 23.5 µM | [2] 33.2 µM | [3] 23.5 µM | [4] 20.9 µM | [5] 38.5 µM | [6] 68.1 nM | [7] 26.4 µM | [8] 18.7 µM | [9] 33.2 µM | [10] 16.6 µM | [11] 20.9 µM | [12] 37.2 µM | [13] 37.2 µM | [14] 59 µM | [15] 14.8 µM | [16] 2.1 nM | [17] 20.9 µM | [18] 16.6 µM | [19] 23.5 µM | [20] 1.32 µM | [21] 20.9 µM | [22] 18.7 µM | [23] 33.2 nM | [24] 29.6 µM | [25] 3.72 µM | [26] 6.6 nM | [27] 18.7 µM | [28] 26.4 µM | [29] 16.6 µM | [30] 33.2 µM | [31] 33.2 µM | [32] 33.2 µM | [33] 8.33 µM | [34] 105 nM | [35] 37.2 µM
